This note sets out measurements from US12492204B2, “Substituted (7H-pyrrolo[2,3-D]pyrimidin-4-yl) amino compounds useful as JAK 1 inhibitors” (CHEMWERTH, INC., priority 2019, dated 2025).

The chains behind the UniProt entries cited, without tags or fusion partners. Where a name states a change or a piece, a line headed by the entry shows the natural chain unless it says otherwise.
UniProt P29597: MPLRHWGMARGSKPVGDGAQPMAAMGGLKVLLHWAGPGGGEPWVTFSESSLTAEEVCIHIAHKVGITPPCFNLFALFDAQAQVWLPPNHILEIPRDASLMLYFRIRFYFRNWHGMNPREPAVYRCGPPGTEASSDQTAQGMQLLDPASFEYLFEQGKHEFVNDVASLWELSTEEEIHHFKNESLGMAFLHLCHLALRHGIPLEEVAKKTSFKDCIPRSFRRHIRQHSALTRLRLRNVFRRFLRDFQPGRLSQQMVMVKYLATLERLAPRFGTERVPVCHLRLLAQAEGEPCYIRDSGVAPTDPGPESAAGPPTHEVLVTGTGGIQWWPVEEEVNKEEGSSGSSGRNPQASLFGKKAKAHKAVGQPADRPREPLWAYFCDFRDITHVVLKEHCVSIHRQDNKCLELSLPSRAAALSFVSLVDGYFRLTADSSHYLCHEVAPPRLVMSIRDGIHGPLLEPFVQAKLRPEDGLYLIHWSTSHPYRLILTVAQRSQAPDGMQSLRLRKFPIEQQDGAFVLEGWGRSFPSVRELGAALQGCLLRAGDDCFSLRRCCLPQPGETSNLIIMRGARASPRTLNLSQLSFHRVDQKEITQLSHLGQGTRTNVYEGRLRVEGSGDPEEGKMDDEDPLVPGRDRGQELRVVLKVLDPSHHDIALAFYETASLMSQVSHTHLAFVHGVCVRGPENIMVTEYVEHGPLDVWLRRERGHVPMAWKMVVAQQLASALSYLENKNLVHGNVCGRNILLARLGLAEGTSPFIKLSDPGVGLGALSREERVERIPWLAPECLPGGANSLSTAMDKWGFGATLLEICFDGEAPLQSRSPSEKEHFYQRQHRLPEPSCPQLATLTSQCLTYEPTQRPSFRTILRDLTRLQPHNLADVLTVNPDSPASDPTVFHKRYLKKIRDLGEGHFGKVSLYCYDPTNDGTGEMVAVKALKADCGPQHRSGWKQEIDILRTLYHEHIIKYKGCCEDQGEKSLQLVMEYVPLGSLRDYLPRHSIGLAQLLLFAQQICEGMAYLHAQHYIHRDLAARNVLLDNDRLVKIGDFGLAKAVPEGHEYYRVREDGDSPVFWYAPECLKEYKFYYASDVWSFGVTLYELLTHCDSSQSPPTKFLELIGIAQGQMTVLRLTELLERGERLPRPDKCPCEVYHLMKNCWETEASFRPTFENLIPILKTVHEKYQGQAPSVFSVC

Molecules are shown by their SMILES.

For the test, the target named is TYK2 (Homo sapiens (Human), UniProt P29597). Briefly: TYK2 enzymatic assay. As to conditions: ATP 16 μM, Peptide30. Format: biochemical.

For orientation: IC50 means the concentration needed to halve the response being measured. `O=C(Nc1nc2cccc(-c3ccc(CN4CCS(=O)(=O)CC4)cc3)n2n1)C1CC1` [Filgotinib, reference compound] came in with an IC50 of 0.216 µM.
